This passage reports IC50 results from US20220324865A1 (Bayer Aktiengesellschaft, priority 2018, published 2022).

Amino acid sequences for entries named in this document (tags omitted).
UniProt P43115, whole entry: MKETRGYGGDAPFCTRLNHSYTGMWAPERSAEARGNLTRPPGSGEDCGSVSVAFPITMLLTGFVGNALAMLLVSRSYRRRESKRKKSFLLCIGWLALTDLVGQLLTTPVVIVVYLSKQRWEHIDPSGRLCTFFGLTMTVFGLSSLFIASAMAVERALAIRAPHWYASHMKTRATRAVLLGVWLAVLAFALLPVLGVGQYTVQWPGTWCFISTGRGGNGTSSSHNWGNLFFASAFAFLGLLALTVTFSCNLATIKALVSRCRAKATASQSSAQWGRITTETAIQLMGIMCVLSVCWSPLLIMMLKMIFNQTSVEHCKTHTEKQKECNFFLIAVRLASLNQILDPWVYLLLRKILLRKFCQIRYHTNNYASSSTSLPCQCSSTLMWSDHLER

For this experiment, the target named is human EP3 receptor (Homo sapiens, UniProt P43115). The experiment is described as follows: Cellular in vitro assay for determining EP3 receptor activity (human EP3 cell line, sulprostone-stimulated calcium luminescence). The settings on record: read-out: EP3 CHO mtCLY ANTAG IC50; CHO cells expressing human EP3 and mitochondrial Clytin; antagonist mode, sulprostone at EC50. Put shortly:
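Antagonist activity was measured as inhibition of the luminescent calcium signal elicited by EC50 sulprostone, following 10 min compound pretreatment. The cell line was recombinant CHO K1 co-expressing human EP3, Gα16 and the photoprotein Clytin, reconstituted with coelenterazine.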
With `Cc1ncc(-c2cn3nc(C(=O)N[C@@H](C)c4ccc(F)cc4)c(C4CC4)c3c(=O)[nH]2)cc1Cl`, the IC50 (usually the concentration at which inhibition is half-maximal) came out at 1.25 nM. As for `C[C@H](NC(=O)c1nn2cc(-c3ccc(Cl)c(F)c3)[nH]c(=O)c2c1C(F)(F)C(F)(F)F)C1CC1`, the figure is 5.4 nM. In the case of `Cc1ccc(-c2cn3nc(C(=O)N[C@H](C)C4CC4)c(C4CC4)c3c(=O)[nH]2)cc1F`, the half-maximal inhibitory concentration (IC50) was 2.1 nM. The figure for `O=C(NCC1CCCCC1)c1cc2c(=O)[nH]c(-c3ccc4ccccc4c3)cn2n1` is 1.95 nM; for `COC[C@H](C)NC(=O)c1nn2cc(-c3ccc(C)c(F)c3)[nH]c(=O)c2c1C1CC1` it is 3.45 nM; for `O=C(N[C@H](CN1CC[C@@H](F)C1)c1ccc(F)cc1)c1nn2cc(-c3ccc(Cl)c(F)c3)[nH]c(=O)c2c1C1CC1` it is 0.83 nM. Regarding `Cc1ccc(-c2cn3nc(C(=O)NC4CCN(CC(F)(F)F)C4)c(C4CC4)c3c(=O)[nH]2)cc1C` (single isomer, unassigned) [6-462], the IC50 came to 1.2 nM.

For the molecule `Cc1ccc(-c2cn3nc(C(=O)N[C@@H](c4ccc(F)cc4)C(F)(F)CO)c(C4CC4(F)F)c3c(=O)[nH]2)cc1Cl` (stereo partly shown), the half-inhibitory concentration (IC50) is 1.85 nM.

On to `Cc1ccc(-c2cn3nc(C(=O)NC(CO)C4CC4)c(C4CC4)c3c(=O)[nH]2)cc1Cl` (single isomer, unassigned) [6-266], for which the concentration for half-maximal inhibition (IC50) turned out to be 2.85 nM. For the molecule `CC(C)(O)C(NC(=O)c1nn2cc(-c3ccc(Cl)c(F)c3)[nH]c(=O)c2c1C1CC1)c1ccc(F)c(F)c1` (single isomer, unassigned) [6-100], the IC50 amounted to 2.2 nM. The figure for `Cc1ccc(-c2cn3nc(C(=O)NC(CO)c4ccc(F)cc4)c(C4CC4)c3c(=O)[nH]2)cc1F` (single isomer, unassigned) [6-374] is 1 nM; for `O=C(N[C@H](CCO)c1ccc(F)cc1)c1nn2cc(-c3ccc(Cl)c(F)c3)[nH]c(=O)c2c1C1CC1` it is 0.48 nM; for `Cc1cc(-c2cn3nc(C(=O)NCC(O)C(F)(F)F)c(C(F)(F)F)c3c(=O)[nH]2)ccc1Cl` (single isomer, unassigned) [6-206] it is 3.1 nM. As for `Cc1ccc(-c2cn3nc(C(=O)NCC(N)C(F)(F)F)c(C(F)(F)F)c3c(=O)[nH]2)cc1Cl` (single isomer, unassigned) [6-167], the figure is 8.65 nM; as for `Cc1cc(-c2cn3nc(C(=O)NCC(C)(N)C(F)(F)F)c(C(F)(F)F)c3c(=O)[nH]2)ccc1Cl` (racemic), 8.67 nM; as for `Cc1cc(-c2cn3nc(C(=O)N[C@@H](c4ccc(F)cc4)[C@H](O)C(F)(F)F)c(C(F)(F)F)c3c(=O)[nH]2)ccc1Cl`, 0.73 nM. As for `Cc1ccc(-c2cn3nc(C(=O)N[C@H](c4ccc(F)cc4)C(F)(F)CO)cc3c(=O)[nH]2)cc1C`, the figure is 6.13 nM. Turning to `Cc1ccc(-c2cn3nc(C(=O)NC4CCN(CC(F)(F)F)C4)c(C4CC4)c3c(=O)[nH]2)cc1F` (stereo not shown), the IC50 amounted to 3.1 nM. For the molecule `Cc1cc(-c2cn3nc(C(=O)NCC(O)C(F)(F)F)c(C(F)(F)F)c3c(=O)[nH]2)ccc1Cl` (single isomer, unassigned) [6-204], the concentration for half-maximal inhibition (IC50) was 8.15 nM.

Take `O=C(N[C@@H](c1ccc(F)cc1)C(F)(F)CO)c1nn2cc(-c3ccc(Cl)c(F)c3)[nH]c(=O)c2c1C1CC1(F)F` (stereo partly shown): the half-maximal inhibitory concentration (IC50) amounted to 2.05 nM. On to `O=C(NCC(O)C(F)(F)F)c1nn2cc(-c3ccc4c(c3)OCCO4)[nH]c(=O)c2c1C(F)(F)F` (stereo not shown), for which the IC50 was 5.5 nM.

`O=C(N[C@@H](c1ccc(F)cc1)C(F)(F)CO)c1nn2cc(-c3ccc(Cl)c(C(F)F)c3)[nH]c(=O)c2c1C1CC1`: the IC50 was 6 nM.
